Results published in patent publication US20060127310A1, “Amplification of biotin-mediated targeting” (priority 2002, published 2006).

What was measured:
[1] = test system: P815 tumour cells; settings: mice bearing P815 tumour; 5 mg/kg Rhodamine conjugated to HPMA intraperitoneally; six hours after injection; FIG. 1
Procedure: For tumour accumulation studies, various strains of mice bearing a variety of tumours were injected intraperitoneally with 5 mg/kg Rhodamine conjugated to the HPMA polymers. Six hours after injection, the mice were sacrificed, their tumours removed and cryo-embedded before cryostatic sectioning. The level of accumulation of the Rhodamine-HPMA was determined by fluorescent microscopy using a Zeiss microscope equiped with Axioplan software. […] Blue staining is BisBenzamide staining of cell nuclei.

[2] = test system: Colo-26; assay: Uptake of Rhodamine-HPMA polymers into tumour cell lines; format: cell-based; set-up: key: −: Uptake was determined on a relative scale; +/−: Uptake was determined on a relative scale; +: Uptake was determined on a relative scale; ++: Uptake was determined on a relative scale; +++: Uptake was determined on a relative scale; settings: Colo-26, Balb/C, Colon Carcin; 5 hours at 37° C.
Procedure: (§1) Cells from various tumour cell lines were allowed to grow for 2 days on glass slides incubated in appropriate media at 37° C. in 5% CO2. […] Cells were incubated for a further 5 hours at 37° C. in 5% CO2. At this time the media was removed and uptake into the cells was assessed by fluorescent microscopy of internalization of the rhodamine fluorophore. Uptake was determined on a relative scale.

[3] = test system: JC; assay: as above; format: cell-based; set-up: key: −: Uptake was determined on a relative scale; +/−: Uptake was determined on a relative scale; +: Uptake was determined on a relative scale; ++: Uptake was determined on a relative scale; +++: Uptake was determined on a relative scale; settings: Balb/C, Breast, 5 hours at 37° C.
Procedure: as §1

[4] = test system: Ov 2008; assay: as above; format: cell-based; set-up: key: −: Uptake was determined on a relative scale; +/−: Uptake was determined on a relative scale; +: Uptake was determined on a relative scale; ++: Uptake was determined on a relative scale; +++: Uptake was determined on a relative scale; settings: Ov 2008, Balb/C-Nu, Ovarian; 5 hours at 37° C.
Procedure: as §1

[5] = test system: ID8; assay: as above; format: cell-based; set-up: key: −: Uptake was determined on a relative scale; +/−: Uptake was determined on a relative scale; +: Uptake was determined on a relative scale; ++: Uptake was determined on a relative scale; +++: Uptake was determined on a relative scale; settings: ID8, C57/BI, Ovarian; 5 hours at 37° C.
Procedure: as §1

[6] = test system: HCT-116; assay: as above; format: cell-based; set-up: key: −: Uptake was determined on a relative scale; +/−: Uptake was determined on a relative scale; +: Uptake was determined on a relative scale; ++: Uptake was determined on a relative scale; +++: Uptake was determined on a relative scale; settings: HCT-116, Balb/C-Nu, Colon Carcin; 5 hours at 37° C.
Procedure: as §1

[7] = test system: MMT060562; assay: as above; format: cell-based; set-up: key: −: Uptake was determined on a relative scale; +/−: Uptake was determined on a relative scale; +: Uptake was determined on a relative scale; ++: Uptake was determined on a relative scale; +++: Uptake was determined on a relative scale; settings: MMT060562, Balb/C, Breast; 5 hours at 37° C.
Procedure: as §1

[8] = test system: Ovcar; assay: as above; format: cell-based; set-up: key: −: Uptake was determined on a relative scale; +/−: Uptake was determined on a relative scale; +: Uptake was determined on a relative scale; ++: Uptake was determined on a relative scale; +++: Uptake was determined on a relative scale; settings: Ovarian, 5 hours at 37° C.
Procedure: as §1

[9] = test system: RENCA; assay: as above; format: cell-based; set-up: key: −: Uptake was determined on a relative scale; +/−: Uptake was determined on a relative scale; +: Uptake was determined on a relative scale; ++: Uptake was determined on a relative scale; +++: Uptake was determined on a relative scale; settings: Balb/C, Renal cell, 5 hours at 37° C.
Procedure: as §1

[10] = test system: L1210FR; assay: as above; format: cell-based; set-up: key: −: Uptake was determined on a relative scale; +/−: Uptake was determined on a relative scale; +: Uptake was determined on a relative scale; ++: Uptake was determined on a relative scale; +++: Uptake was determined on a relative scale; settings: DBA/2, Leukemia, 5 hours at 37° C.
Procedure: as §1

[11] = test system: B16; assay: as above; format: cell-based; set-up: key: −: Uptake was determined on a relative scale; +/−: Uptake was determined on a relative scale; +: Uptake was determined on a relative scale; ++: Uptake was determined on a relative scale; +++: Uptake was determined on a relative scale; settings: B16, C57/BI, Melanoma; 5 hours at 37° C.
Procedure: as §1

[12] = test system: M109; assay: as above; format: cell-based; set-up: key: −: Uptake was determined on a relative scale; +/−: Uptake was determined on a relative scale; +: Uptake was determined on a relative scale; ++: Uptake was determined on a relative scale; +++: Uptake was determined on a relative scale; settings: M109, Balb/C, Lung; 5 hours at 37° C.
Procedure: as §1

[13] = test system: LL-2; assay: as above; format: cell-based; set-up: key: −: Uptake was determined on a relative scale; +/−: Uptake was determined on a relative scale; +: Uptake was determined on a relative scale; ++: Uptake was determined on a relative scale; +++: Uptake was determined on a relative scale; settings: LL-2, C57/BI, Lung; 5 hours at 37° C.
Procedure: as §1

[14] = test system: L1210; assay: as above; format: cell-based; set-up: key: −: Uptake was determined on a relative scale; +/−: Uptake was determined on a relative scale; +: Uptake was determined on a relative scale; ++: Uptake was determined on a relative scale; +++: Uptake was determined on a relative scale; settings: L1210, DBA/2, Leukemia; 5 hours at 37° C.
Procedure: as §1

[15] = test system: 4T1; assay: as above; format: cell-based; set-up: key: −: Uptake was determined on a relative scale; +/−: Uptake was determined on a relative scale; +: Uptake was determined on a relative scale; ++: Uptake was determined on a relative scale; +++: Uptake was determined on a relative scale; settings: 4T1, Balb/C, Breast; 5 hours at 37° C.
Procedure: as §1

[16] = test system: BW5147; assay: as above; format: cell-based; set-up: key: −: Uptake was determined on a relative scale; +/−: Uptake was determined on a relative scale; +: Uptake was determined on a relative scale; ++: Uptake was determined on a relative scale; +++: Uptake was determined on a relative scale; settings: BW5147, AKR/J, Lymphoma; 5 hours at 37° C.
Procedure: as §1

[17] = test system: P815; assay: as above; format: cell-based; set-up: key: −: Uptake was determined on a relative scale; +/−: Uptake was determined on a relative scale; +: Uptake was determined on a relative scale; ++: Uptake was determined on a relative scale; +++: Uptake was determined on a relative scale; settings: P815, DBA/2, Mastocytoma; 5 hours at 37° C.
Procedure: as §1

O=C(O)CCCC[C@@H]1SC[C@@H]2NC(=O)N[C@@H]21 [Biotin, biotin-substituted-Rhodamine-HPMA]
−: Uptake into the cells (internalization of the rhodamine fluorophore, fluorescent microscopy), relative scale [6] | Uptake into the cells (internalization of the rhodamine fluorophore, fluorescent microscopy), relative scale [11] | Uptake into the cells (internalization of the rhodamine fluorophore, fluorescent microscopy), relative scale [13] | Uptake into the cells (internalization of the rhodamine fluorophore, fluorescent microscopy), relative scale [14]
enhanced by biotin derivatization: Level of accumulation / polymer uptake by P815 tumour cells (fluorescent microscopy of cryostat sections) [1]
++: Uptake into the cells (internalization of the rhodamine fluorophore, fluorescent microscopy), relative scale [4] | Uptake into the cells (internalization of the rhodamine fluorophore, fluorescent microscopy), relative scale [5] | Uptake into the cells (internalization of the rhodamine fluorophore, fluorescent microscopy), relative scale [8]
+/−: Uptake into the cells (internalization of the rhodamine fluorophore, fluorescent microscopy), relative scale [16]
+++: Uptake into the cells (internalization of the rhodamine fluorophore, fluorescent microscopy), relative scale [2] | Uptake into the cells (internalization of the rhodamine fluorophore, fluorescent microscopy), relative scale [3] | Uptake into the cells (internalization of the rhodamine fluorophore, fluorescent microscopy), relative scale [7] | Uptake into the cells (internalization of the rhodamine fluorophore, fluorescent microscopy), relative scale [9] | Uptake into the cells (internalization of the rhodamine fluorophore, fluorescent microscopy), relative scale [10] | Uptake into the cells (internalization of the rhodamine fluorophore, fluorescent microscopy), relative scale [12] | Uptake into the cells (internalization of the rhodamine fluorophore, fluorescent microscopy), relative scale [15] | Uptake into the cells (internalization of the rhodamine fluorophore, fluorescent microscopy), relative scale [17]
